# Ab-14 heavy chain CDR variants: yeast mating affinities

Reference: Engelhart et al. 2022, doi:10.1038/s41597-022-01779-4. File: FLAb, binding data.

The target is the same throughout: PDVDLGDISGINAS, from the HR2 region of SARS-CoV-2 spike.

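The starting antibody came from a phage panning campaign against this peptide. The library (AAYL49) carries one to three amino acid substitutions per variant, with no insertions or deletions. The scFvs were displayed on barcoded MATa yeast, the peptide on MATalpha yeast. Pairs that bind mate more often; barcode pairs of the diploids are counted by sequencing. Scores were corrected for input abundance and mapped to Kd with protein pairs of known affinity run in the same pool. There are three technical replicates.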

The variants keep the light chain, the linker and the frameworks of Ab-14 (scFv order VH, three GGGGS repeats, VL).
VH: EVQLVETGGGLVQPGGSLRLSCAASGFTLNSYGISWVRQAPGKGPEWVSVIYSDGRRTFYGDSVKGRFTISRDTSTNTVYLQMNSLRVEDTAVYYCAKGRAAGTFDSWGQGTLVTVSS
VL: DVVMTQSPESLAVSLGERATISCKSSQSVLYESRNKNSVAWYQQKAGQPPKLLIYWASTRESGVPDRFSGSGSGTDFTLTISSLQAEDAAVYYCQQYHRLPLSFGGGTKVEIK

Variants are written as CDR1, CDR2 and CDR3 of the heavy chain (limits as in the source). Parent: GFTLNSYGIS, VIYSDGRRTFYGDSVK, GRAAGTFDS.
Affinities are written as log10 Kd with Kd in nM; a lower number is a better binder.
"nd" means that the variant was in the library but no mating with the target was seen in that replicate; the authors take this as a sign of poor binding, and no number exists.
Nonspecific signal, from three strains lacking the peptide, appeared in 15% of pairings of library AAYL49, centred on 4.06 (5% of these signals below 2.83); values are not corrected for it.

CDR-H1	CDR-H2	CDR-H3	log10 Kd, replicates
GFTLNSYGIS	VIYSDGRRTIYGDSVK	GPAAGTFDS	3.10 / nd / 3.22
GFTLNSYGIS	VIYSDQREQFYGDSVK	GRAAGTFDS	nd / nd / nd
GFTLNGYGIS	VIYSDGRRTFKGDSVK	GRAAGTFDR	nd / nd / nd
GFTLNSYGRS	VIRSDGRRTFHGDSVK	GRAAGTFDS	4.20 / 5.30 / 3.60
GFTLNSYGIS	VIYSQGRRTIYGDSVK	GRFAGTFDS	2.90 / nd / nd
GWTLNSYGIS	VIYSDGRRTFYGDSLK	GRKAGTFDS	nd / nd / nd
GFTLNSYGIS	VIYSDGRRTFYGDDVK	GRACGTFSS	nd / nd / nd
GFTLNEYGIS	VMYSDGRRTFYGDSVK	YRAAGTFDS	1.92 / 2.11 / 2.21
GFTLNSYGIS	VIYSDGRRTFYGDLVK	GRAARTFHS	2.89 / 2.25 / 2.85
GFTLNSYGFS	VIYSYGRRGFYGDSVK	GRAAGTFDS	nd / nd / nd
GFTLNSYDIS	CIYSDGRRTFYGDSVK	GRAAGTFDS	nd / 3.89 / nd
GFTLNSYGIS	VFYSDGRRTFYGDSVK	GRMAGTIDS	nd / nd / nd
GFTLNSYGIS	VIYSDFRRTFYGDSVK	GRANGTRDS	nd / 3.20 / nd
GFTLNSPQTS	VIYSDGRRTFYGDSVK	GRAAGTFDS	nd / 3.88 / nd
GATLNSLGIS	VIYSDGRRTFYGDSVK	YRAAGTFDS	nd / 3.51 / 4.91
GFTLNSYGIS	MIDSDGRRTFYGDSVK	GRAAGTFDS	nd / nd / nd
SRTLNSYTIS	VIYSDGRRTFYGDSVK	GRAAGTFDS	nd / nd / nd
GFTLNSYGIS	VIYFDGRRDFYGDSVK	GRAAGTFDQ	2.52 / 2.01 / 2.82
GFRLNSYGIS	VIYYDGRRTFYGDSVF	GRAAGTFDS	2.98 / nd / nd
GFTLNSYGIS	VIYSKGYRPFYGDSVK	GRAAGTFDS	nd / nd / nd
GFTLRSYGIS	VIYSWGRRTDYGDSVK	GRAAGTFDS	nd / nd / nd
GFTLNSYGIS	VIYSDGRRTFYGDSVK	GRWAGTGDS	0.70 / 0.63 / 0.57
GFTLNSYGIS	VIYSDGMRTVYGDSVK	GRAAGTFDS	1.78 / 1.70 / 1.74
GCTLNSYGIS	VINSDGRRTFYGSSVK	GRAAGTFDS	nd / 5.55 / 4.98
GFTLNSYGIK	VIYSDERRTFYGDSVK	GRAGGTFDS	nd / nd / nd
GFTLNSYHIS	VNYSDGRRTFYGDSVM	GRAAGTFDS	nd / nd / nd
LFTLNSYGIS	VRYSDGRRTFYGDSVK	GRAAGTFDS	nd / nd / nd
GFTLNSYGIS	VIYSDGRGTPYGDSVK	GPAAGTFDS	3.42 / nd / nd
GATLNSYTIS	VIYSDGRRTFYGDSVK	GRAAGTFDS	nd / 3.76 / nd
GFTLNSYGIS	VIYSDGRSTFYGGSVK	GRAAGTFDS	nd / nd / nd
GCTLNSYGIS	VIYSLGRRTFYGDSMK	GRAAGTFDS	nd / 3.62 / nd
GFTLASYGIS	VIYSDGRRTFYGDSVK	GGAAGIFDS	1.37 / 3.55 / 1.11
GSTTNSYGIS	VIYSDGRRTFYGDSVK	SRAAGTFDS	nd / 2.62 / nd
GFTLNSYLIS	VIYSDGRRTFYGDRVK	GRAAGTFKS	nd / nd / nd
GFTLNSYGIS	VIYSDGRRTFYGMSVK	GRAAGTFCS	3.60 / nd / nd
GFTLNSYGIS	VIYSDGASTFYGDDVK	GRAAGTFDS	5.88 / nd / nd
GFTLNSYGIS	VIYSDGRRTDYGPSVK	GRAKGTFDS	nd / nd / nd
GFTLNLYGIS	VIYSYGRPTFYGDSVK	GRAAGTFDS	nd / 2.34 / 4.48
GFTLNSYGIS	VIYSDNRRTFYGDGVP	GRAAGTFDS	nd / nd / nd
GPTHNSYGIS	VIYSDGRRTFYGDSVK	GGAAGTFDS	4.86 / 3.87 / nd
GFTLNMYGIS	VIYSDGRTTFYGDSQK	GRAAGTFDS	4.31 / nd / nd
MFTLNSYGCS	NIYSDGRRTFYGDSVK	GRAAGTFDS	nd / nd / nd
GFTNNSYMIS	FIYSDGRRTFYGDSVK	GRAAGTFDS	nd / 3.42 / 3.15
GFTLNSYGIS	VIYSDGCRNFYGDSVK	GRAAGTFYS	nd / nd / nd
GFTLNSYGKS	VIYSDGRRTFYGDSVQ	GRAAGTFDW	nd / 3.25 / nd

The 5 strongest on average among those seen in every replicate, once more:

{"CDR-H1": "GFTLNSYGIS", "CDR-H2": "VIYSDGRRTFYGDSVK", "CDR-H3": "GRWAGTGDS", "log10 Kd, replicates": "0.70 / 0.63 / 0.57"}
{"CDR-H1": "GFTLNSYGIS", "CDR-H2": "VIYSDGMRTVYGDSVK", "CDR-H3": "GRAAGTFDS", "log10 Kd, replicates": "1.78 / 1.70 / 1.74"}
{"CDR-H1": "GFTLASYGIS", "CDR-H2": "VIYSDGRRTFYGDSVK", "CDR-H3": "GGAAGIFDS", "log10 Kd, replicates": "1.37 / 3.55 / 1.11"}
{"CDR-H1": "GFTLNEYGIS", "CDR-H2": "VMYSDGRRTFYGDSVK", "CDR-H3": "YRAAGTFDS", "log10 Kd, replicates": "1.92 / 2.11 / 2.21"}
{"CDR-H1": "GFTLNSYGIS", "CDR-H2": "VIYFDGRRDFYGDSVK", "CDR-H3": "GRAAGTFDQ", "log10 Kd, replicates": "2.52 / 2.01 / 2.82"}